The text below walks through data of publication PMC5797126, “Identification of influenza polymerase inhibitors targeting C-terminal domain of PA through surface plasmon resonance screening” (Scientific Reports, 2018).

In general, CC50 refers to the concentration at which the toxic effect on the cells reaches its halfway point. Take `CC1(C)CC(=O)c2c(O)c(-c3ccccc3)c(=O)n(-c3ccccc3)c2C1`: the CC50 in the series with MDCK cells and with 293T cells was more than 100 µM each time.
With `O=C1C(c2ccccc2)=C(O)c2cccc3c(=O)n(-c4ccccc4)c(O)c1c23`, the half-maximal cytotoxic concentration (CC50) with MDCK cells worked out at 87 µM; with 293T cells, 62.7 µM.
For `Cn1c(=O)c(Cc2ccccc2)c(O)c2c(=O)n(-c3ccccc3)c(=O)n(-c3ccccc3)c21`, the cytotoxic concentration (CC50) in the series with MDCK cells and in the series on 293T cells was more than 100 µM in each case.
With `O=c1c(-c2ccccc2)c(O)c2c(n1-c1ccccc1)CCCC2`, the 50% cytotoxic concentration (CC50) with MDCK cells and with 293T cells was more than 100 µM throughout.
Regarding `O=C1C2=C(CCC2)NC2C1C(=O)N(c1ccccc1)C(=O)N2c1ccccc1` (stereo not shown), the CC50 in the series on MDCK cells and in the series on 293T cells was more than 100 µM each time.
